Measured values from patent US10052296B2, “Formulations for treating pain” (priority 2016, dated 2018).
In brackets after ≈: the same amount, converted by molar mass.

Key:
physchem = conditions: water, thermodynamic from solid, Acetaminophen solubility, APAP alone in water
[1] = APAP alone, overall pH range 4.0-8.0

CC(=O)Nc1ccc(O)cc1 [Acetaminophen]
solubility (physchem; pH 4.5, aqueous buffer, pH 4.5): 14.1 mg/mL (≈ 93.3 mM)
solubility (physchem; pH 8, aqueous buffer, pH 8.0): 14.2 mg/mL (≈ 93.9 mM)
difference in solubility of APAP over pH [1]: no significant difference
